Measurements as given in patent US6248712.

Legend:
[1] = target: human plasmin (human) (UniProt P00747)
[2] = target: human plasmin (human) (UniProt P00747); remark: listed apart in the source
[3] = target: human plasminogen (human) (UniProt P00747)

Row | Bound plasmin activity (%) at 3 h and 17 h [1] | Pro-u-PA index (%) and bound plasmin activity (ng) [2] | kinetic constants for Glu-plasminogen activation: Km, kcat, kcat /Km [3] | Substance
1 | 13.2% | 93% | – | aprotinin (from UniProt P00974)
2 | – | – | 139000 M⁻¹ s⁻¹ | u-PA bound to u-PAR on the cell surface (from UniProt P00749)
3 | – | – | 29300 M⁻¹ s⁻¹ | human urokinase-type plasminogen activator, active two-chain 54 kD form (from UniProt P00749) (enzyme)
